Assay results published in PubChem BioAssay AID540364 (The Scripps Research Institute Molecular Screening Center, 2011).
The entries are a selection whose mix differs from that of the whole data set. Activity calls are given as the source filed them.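 The calls were made as follows: active = activation above the average of all compounds screened plus 3 SD, cutoff fixed separately per campaign (cut at about 7.5% in these data); inactive = the rest.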

Experiment: GAA850 frataxin promoter reporter upregulation – cell-based, luciferase luminescence, HEK293 lucGAA850, primary screen (AID 540364);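 also: 0% = DMSO wells and 100% = 10 µM SAHA wells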
Conditions: HEK293 lucGAA850 FXN promoter luciferase reporter, 24 h; at 6 µM; active compounds read high; percent of 10 µM SAHA response

SMILES	activation
O=P1(Nc2ccc(Br)cn2)COc2ccccc2OC1	inactive: -1.02%
O=[As](O)(c1cccs1)c1cccs1	inactive: 2.19%
Cc1ccc(OCC(=O)OC2CN3CCC2CC3)cc1 (stereo not drawn)	inactive: -1.01%
O=C(O)C(O)c1ccc(N(CCCl)CCCl)cc1 (stereo not drawn)	inactive: 0%
CCOC(=O)Nc1ccc([As](=O)(O)O)c(O)c1	inactive: 0.14%
CC1CCNP(=O)(N(CCCl)CCCl)O1 (stereo not drawn)	inactive: -0.7%
COP(=O)(OC)N1CC1c1ccccc1 (stereo not drawn)	inactive: -0.8%
Cc1cc(SC(NC(=O)c2ccccc2)C(Cl)(Cl)Cl)nc(C(C)C)n1 (stereo not drawn)	inactive: 0.74%
CCCCOc1ccc(C(=O)NCC2(N3CCCCC3)CCCCC2)cc1OC	inactive: -0.05%
CCOC(=O)Nc1cccc([As](=O)(O)O)c1	inactive: 1.04%
Cc1cc(SC(NC=O)C(Cl)(Cl)Cl)ncn1 (stereo not drawn)	inactive: 2.55%
O=P(Nc1ccccn1)(c1cccc2ccccc12)c1cccc2ccccc12	inactive: 4.43%
O=[N+]([O-])c1ccc(Nc2ccc(Oc3ccc([N+](=O)[O-])cc3[N+](=O)[O-])cc2)c([N+](=O)[O-])c1	inactive: 2.84%
COP1(=S)c2c(C)nn(CCC#N)c2N=C(c2ccc(F)cc2)N1C (stereo not drawn)	inactive: 1.13%
O=C(O)C(=O)c1ccc(N(CCCl)CCCl)cc1	inactive: 3.67%
O=C(Nc1ccncc1[N+](=O)[O-])c1ccc([N+](=O)[O-])cc1[N+](=O)[O-]	inactive: -1.72%
O=C(COc1ccccc1)OC1CN2CCC1CC2 (stereo not drawn)	inactive: -0.05%
CSc1ccc(Nc2c([N+](=O)[O-])cc([N+](=O)[O-])cc2[N+](=O)[O-])cc1	inactive: -1.16%
O=C(OC1CN2CCC1CC2)c1cccc([N+](=O)[O-])c1 (stereo not drawn)	inactive: 0.93%
CCOC(=O)c1ccc(NC(=O)C(C)(CCl)SC)cc1 (stereo not drawn)	inactive: 1.73%
CCC(C)N(CC(C)C)C(=S)SC(NC(C)=O)C(Cl)(Cl)Cl (stereo not drawn)	inactive: 0.5%
Cc1c2c(nc3ccccc13)SC(C(Cl)Cl)C2 (stereo not drawn)	inactive: 0.67%

SMILES	activation
Cc1cc(=O)[nH]c(N[N+](=O)[O-])n1	inactive: 1.97%
O=C(OC1CN2CCC1CC2)C12CC3CC(CC(C3)C1)C2 (stereo not drawn)	inactive: 0.16%
O=P1(N(CCCl)CCCl)Nc2ccccc2N1	inactive: 4.24%
O=P1(N(CCCl)CCCl)OCCCN1CCCl (stereo not drawn)	inactive: 1.2%
COc1cc(I)ccc1[As](=O)(O)O	inactive: 3.16%
COc1ccc2nc(NP(=O)(c3ccccc3)c3ccccc3)sc2c1	inactive: 0.27%
O=[N+]([O-])c1cc(Oc2ccc([N+](=O)[O-])cc2C(F)(F)F)cc([N+](=O)[O-])c1	inactive: 0.21%
COc1ccc(N/C(=N/P(=O)(N2CCOCC2)N2CCOCC2)N2CCOCC2)cc1	inactive: -1.04%
COc1cc(C(=O)NCC2(N3CCOCC3)CCCCC2)ccc1OCC(C)C	inactive: 1.5%
O=[N+]([O-])c1ccc(-c2cc([N+](=O)[O-])c(O)c([N+](=O)[O-])c2)cc1	inactive: 1.59%
C[As](=O)(O)c1cccc(C(=O)O)c1	inactive: 0.25%
O=[As](O)(c1ccc(O)cc1)c1ccccc1O	inactive: 1.07%
Cc1ccc(OP(=O)(Nc2ccc([N+](=O)[O-])cn2)Oc2ccc(C)cc2)cc1	inactive: 2.03%
Cc1ccc2nc3c(c(C)c2c1)CC(C(Cl)Cl)S3 (stereo not drawn)	inactive: 2.68%
ClCCSc1nnc(-c2cccnc2)o1	inactive: 2.81%
CC(C)c1ccc(OP(=O)(Nc2ccccn2)Oc2ccccc2F)cc1 (stereo not drawn)	inactive: 3.34%
COC(=O)C1(C)COP(=O)(N2CCCCCC2)OC1 (stereo not drawn)	inactive: -1.2%
O=[N+]([O-])c1cc([N+](=O)[O-])c(-c2ccn[nH]2)s1	active: 8.38%
O=C(OC1CN2CCC1CC2)c1cccc2[nH]cnc12 (stereo not drawn)	inactive: 4.03%
CCN(CC)C(=S)SC(NC=O)C(Cl)(Cl)Cl (stereo not drawn)	inactive: -0.18%
CC(C)NC(=O)NP(=O)(Oc1ccccc1)Oc1ccccc1	inactive: 3.03%
